# Measurements reported in patent US6555522B1, “Peptides and other small molecules derived from regions of interacting proteins and uses thereof” (Mount Sinai School of Medicine of the City of New York, priority 1998, dated 2003).
# The chains behind the UniProt entries cited, without tags or fusion partners. Where a name states a change or a piece, a line headed by the entry shows the natural chain unless it says otherwise.
# UniProt P19754: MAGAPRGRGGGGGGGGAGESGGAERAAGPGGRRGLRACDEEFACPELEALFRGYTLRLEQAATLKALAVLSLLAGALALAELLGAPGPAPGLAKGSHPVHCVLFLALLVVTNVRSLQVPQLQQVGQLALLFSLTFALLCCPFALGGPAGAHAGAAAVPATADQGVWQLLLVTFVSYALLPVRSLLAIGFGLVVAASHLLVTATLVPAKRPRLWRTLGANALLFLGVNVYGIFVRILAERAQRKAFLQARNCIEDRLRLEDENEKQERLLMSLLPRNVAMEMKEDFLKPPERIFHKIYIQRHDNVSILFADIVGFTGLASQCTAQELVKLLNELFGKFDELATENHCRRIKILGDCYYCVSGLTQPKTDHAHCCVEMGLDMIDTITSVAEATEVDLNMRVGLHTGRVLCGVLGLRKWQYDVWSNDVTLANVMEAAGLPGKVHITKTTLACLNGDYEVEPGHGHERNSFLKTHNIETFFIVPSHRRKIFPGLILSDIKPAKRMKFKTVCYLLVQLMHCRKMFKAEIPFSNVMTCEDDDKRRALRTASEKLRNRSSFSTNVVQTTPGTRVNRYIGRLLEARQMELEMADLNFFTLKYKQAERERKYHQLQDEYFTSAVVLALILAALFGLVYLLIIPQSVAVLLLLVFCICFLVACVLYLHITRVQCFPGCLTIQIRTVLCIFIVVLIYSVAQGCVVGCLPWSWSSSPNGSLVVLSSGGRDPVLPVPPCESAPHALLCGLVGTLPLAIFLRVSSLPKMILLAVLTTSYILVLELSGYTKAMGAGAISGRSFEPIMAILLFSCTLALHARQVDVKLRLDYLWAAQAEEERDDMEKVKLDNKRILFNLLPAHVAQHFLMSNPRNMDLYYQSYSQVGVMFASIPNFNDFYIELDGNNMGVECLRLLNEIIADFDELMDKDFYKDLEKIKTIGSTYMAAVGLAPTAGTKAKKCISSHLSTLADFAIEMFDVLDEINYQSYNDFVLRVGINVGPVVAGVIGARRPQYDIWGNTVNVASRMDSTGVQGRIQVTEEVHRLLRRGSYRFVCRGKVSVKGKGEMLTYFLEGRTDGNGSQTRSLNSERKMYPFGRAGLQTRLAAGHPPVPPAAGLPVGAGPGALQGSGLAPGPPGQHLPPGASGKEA
# Target: T1, adenylyl cyclase 1 (AC1) (Bos taurus, UniProt P19754)
# T1 construct: made in house; host or cells: Sf9 cells (baculovirus); membranes used
# Test: Adenylyl cyclase assay, recombinant AC1 in Sf9 cell membranes
# Format: biochemical, bovine
# Conditions: peptide at 100 μM; CaM 100 nM; read-out: inhibition of Ca2+/CaM-stimulated AC1 activity by peptide itself
# Excerpt: Expression of G-Protein Subunits And Adenylyl Cyclases. Gβγ was purified from bovine brain (Dingus et al., 1994, Meth. Enzymol. 237, 457-471). Q227L-Gαs was expressed in rabbit reticulocyte lysates. AC2 was expressed in Sf9 cells by infection with recombinant baculovirus (Jacobowitz and Iyengar, 1994, Proc. Natl. Acad. Sci. U.S.A. 91, 10630-10634). AC2 assays have been described (Chen et al., 1995, Science 268, 1166-1169). Bovine AC1 (Jacobowitz et al., 1993, J. Biol. Chem. 268, 3829-3832) was epitope tagged at the N terminus with the FLAG epitope (Jacobowitz and Iyengar, 1994, Proc. Natl. Acad. Sci. U.S.A. 91, 10630-10634) and expressed in Sf9 cells by baculovirus infection.
# Adenylyl Cyclase Assays. AC2 assays have been described (Chen et al., 1995, Science 268, 1166-1169). When required the peptides were mixed with adenylyl cyclase containing membranes and held on ice for 10 min prior to assays. Approximately 1-4 μg of AC2 Sf9 cell membranes per assay tube was used. All assays contained a mixture of protease inhibitors. The final concentration of each inhibitor was leupeptin at 3.2 μg/ml, aprotinin at 2 μg/ml, phenanthroline at 1.0 mM, and phenylmethylsulfonyl fluoride at 1.0 mM. To study Gβγ inhibition, AC1-containing Sf9 cell membranes (1-4 μg per assay tube) was used. […]
smiles,measurement,value
CC[C@H](C)[C@H](NC(=O)[C@H](C)NC(=O)[C@H](Cc1c[nH]cn1)NC(=O)[C@@H](NC(=O)[C@H](CCCCN)NC(=O)[C@H](CC(N)=O)NC(=O)[C@@H](NC(=O)[C@@H](N)[C@@H](C)O)[C@@H](C)O)C(C)C)C(=O)N1CCC[C@H]1C(=O)N[C@@H](CC(C)C)C(=O)N[C@@H](CCCNC(=N)N)C(=O)N[C@@H](CO)C(=O)N[C@@H](CO)C(=O)N[C@@H](Cc1c[nH]c2ccccc12)C(=O)N[C@H](C(=O)N[C@@H](CCSC)C(=O)N[C@H](C(=O)N[C@@H](CS)C(=O)N[C@@H](C)C(=O)N[C@@H](Cc1ccc(O)cc1)C(=O)O)[C@@H](C)O)C(C)C [Gβ86-105],inhibition at 100 µM,50 to 70%
